Reference: ChEMBL document CHEMBL4610001 (J Med Chem, 2020)
Calls of active or inactive are those of the source.

Sequences of proteins named here, by UniProt entry; tags and fusion partners are left off. A change or cut given only in a name is not applied to a line headed by its entry.
UniProt Q9HBW0, whole entry: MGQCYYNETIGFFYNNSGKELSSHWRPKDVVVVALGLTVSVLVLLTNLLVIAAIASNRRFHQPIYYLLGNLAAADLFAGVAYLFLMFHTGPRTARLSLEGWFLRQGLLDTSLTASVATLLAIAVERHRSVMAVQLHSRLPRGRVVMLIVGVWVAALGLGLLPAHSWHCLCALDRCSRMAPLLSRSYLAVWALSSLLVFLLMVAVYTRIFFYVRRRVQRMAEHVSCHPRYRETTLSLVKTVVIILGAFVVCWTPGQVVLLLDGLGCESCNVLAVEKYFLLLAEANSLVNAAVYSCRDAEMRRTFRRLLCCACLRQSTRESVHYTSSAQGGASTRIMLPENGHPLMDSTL
UniProt Q99677: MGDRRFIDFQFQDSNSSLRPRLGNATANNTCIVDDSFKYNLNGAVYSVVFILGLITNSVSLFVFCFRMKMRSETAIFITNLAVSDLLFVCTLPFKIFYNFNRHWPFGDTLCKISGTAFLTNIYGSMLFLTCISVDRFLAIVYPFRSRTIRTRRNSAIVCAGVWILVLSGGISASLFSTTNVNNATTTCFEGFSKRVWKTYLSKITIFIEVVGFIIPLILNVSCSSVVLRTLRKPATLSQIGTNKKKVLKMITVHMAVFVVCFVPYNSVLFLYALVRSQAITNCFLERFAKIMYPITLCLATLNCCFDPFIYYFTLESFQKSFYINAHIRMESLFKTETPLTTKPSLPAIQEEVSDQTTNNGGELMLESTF
UniProt Q9H1C0: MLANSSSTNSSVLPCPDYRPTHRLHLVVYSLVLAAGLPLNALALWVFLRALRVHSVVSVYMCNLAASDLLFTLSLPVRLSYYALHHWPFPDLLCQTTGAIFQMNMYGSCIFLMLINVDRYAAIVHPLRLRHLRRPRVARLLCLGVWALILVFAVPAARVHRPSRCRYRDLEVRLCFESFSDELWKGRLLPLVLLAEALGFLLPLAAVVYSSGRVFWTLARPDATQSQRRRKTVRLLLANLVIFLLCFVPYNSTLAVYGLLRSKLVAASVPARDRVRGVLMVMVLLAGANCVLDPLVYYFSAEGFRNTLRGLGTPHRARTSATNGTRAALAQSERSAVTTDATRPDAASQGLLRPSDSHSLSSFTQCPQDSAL

Columns and labels:
[1] = target: Lysophosphatidic acid receptor 2 (Homo sapiens) (UniProt Q9HBW0); experiment: Agonist activity at human Flag-tagged LPA2 expressed in rat B103 cells assessed as increase in intracellular calcium level by Fluo-4 NW dye based fluorescence assay; assay type: functional, cell-based
[2] = target: Lysophosphatidic acid receptor 4 (Homo sapiens) (UniProt Q99677); experiment: Agonist activity at human LPA4 expressed in rat B103 cells assessed as increase in intracellular calcium level by Fluo-4 NW dye based fluorescence assay; assay type: functional, cell-based
[3] = target: T1, Lysophosphatidic acid receptor 3 (Homo sapiens) (UniProt Q9UBY5); experiment: Agonist activity at human Flag-tagged LPA3 expressed in rat B103 cells assessed as increase in intracellular calcium level by Fluo-4 NW dye based fluorescence assay; assay type: functional, cell-based
T1 sequence (whole entry): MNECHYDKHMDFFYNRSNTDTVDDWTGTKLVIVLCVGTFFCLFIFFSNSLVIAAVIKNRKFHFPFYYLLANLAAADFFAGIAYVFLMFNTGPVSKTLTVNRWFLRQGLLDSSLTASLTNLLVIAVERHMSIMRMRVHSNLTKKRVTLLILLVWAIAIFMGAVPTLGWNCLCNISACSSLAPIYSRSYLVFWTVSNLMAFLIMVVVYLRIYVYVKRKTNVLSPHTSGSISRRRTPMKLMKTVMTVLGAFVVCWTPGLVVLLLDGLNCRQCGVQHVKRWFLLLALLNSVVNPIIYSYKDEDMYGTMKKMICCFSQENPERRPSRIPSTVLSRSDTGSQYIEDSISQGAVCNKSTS

[4] = target: Lysophosphatidic acid receptor 5 (Homo sapiens) (UniProt Q9H1C0); experiment: Agonist activity at human LPA5 expressed in rat B103 cells assessed as increase in intracellular calcium level by Fluo-4 NW dye based fluorescence assay; assay type: functional, cell-based
[5] = target: Autotaxin (Homo sapiens) (UniProt Q13822)
[6] = target: T2, Lysophosphatidic acid receptor 6 (Homo sapiens) (UniProt P43657); experiment: Agonist activity at human LPA6 expressed in rat B103 cells assessed as increase in intracellular calcium level by Fluo-4 NW dye based fluorescence assay; assay type: functional, cell-based
T2 sequence (whole entry): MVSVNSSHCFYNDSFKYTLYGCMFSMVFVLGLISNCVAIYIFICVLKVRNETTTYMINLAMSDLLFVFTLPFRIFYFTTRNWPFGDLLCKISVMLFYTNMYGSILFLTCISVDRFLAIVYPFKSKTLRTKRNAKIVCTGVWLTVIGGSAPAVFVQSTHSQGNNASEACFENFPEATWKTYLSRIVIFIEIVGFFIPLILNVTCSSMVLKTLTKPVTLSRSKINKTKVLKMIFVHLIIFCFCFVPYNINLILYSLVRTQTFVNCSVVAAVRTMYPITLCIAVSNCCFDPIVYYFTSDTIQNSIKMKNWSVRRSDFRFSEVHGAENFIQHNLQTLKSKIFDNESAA

Measured: Activity

O=C(CCCCCCCCCc1ccccc1)O[C@H](CBr)COP(=O)(O)O
inactive: [1] | [2] | [3] | [4] | [5] | [6]
